Results as given in publication PMC8762078, “An ALS-associated variant of the autophagy receptor SQSTM1/p62 reprograms binding selectivity toward the autophagy-related hATG8 proteins” (The Journal of Biological Chemistry, 2021).

Target: p62 WT-AIM peptide (human)
Test: native MS; ESI-MS competition binding under nondenaturing conditions: each hATG8 titrated into an equimolar mixture of WT-AIM and L341V-AIM peptides (each 10 μM); read-out is the ratio of peak intensities of unbound WT and L341V peptides; ratios given for 20 μM hATG8; two independent experiments

LC3B (microtubule-associated protein 1A/1B light chain 3B) (from UniProt Q9GZQ8 1-120) (natural protein)
ratio of unbound WT:L341V AIM peptides at 20 μM hATG8 (reference: L341V-AIM): 0.6
